Experimental data: PubChem BioAssay AID602363 (Broad Institute, 2012)
Only a part is listed here, and it is no random draw. Active and inactive are the calls of the source.

assay: UUG initiation codon usage in yeast – whole organism, S. cerevisiae, single point, plate reader, primary screen (AID 602363);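 note: firefly luciferase made from a UUG start codon reports start codon fidelity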; conditions: S. cerevisiae UUG-firefly luciferase reporter, luminescence/redox ratio; at 18.7 µM; active compounds read high

SMILES | activity score
CCC(=O)N(c1ccccc1)C1(COC)CCN(CCn2nnn(CC)c2=O)CC1 | inactive: -0.257%
CCC(=O)N(c1ccccc1)C1(COC)CCN(CCc2cccs2)CC1 | inactive: -24.8%
